From PMC8704648 (Pharmaceutics, 2021)

What was measured:
[1] = shake flask
[2] = for Log(Ks): from pKs = pKA + pKB − pKw; for pKa of the Acid: pKa determined for the L-proline alkyl ester (cation) of the salt; for Percent Salt Formed: predicted degree of salt formation from log(Ks)
[3] = after 24 h of penetration, mean ± SD, n = 3

logP, n-octanol-water partition coefficient [1] | Log(Ks) [2] | pKa of the Acid [2] | pKs ([2]; pKs = pKA + pKB − pKw) | Percent Salt Formed [2] | mass accumulated in porcine skin [3] | Substance
0.898 ± 0.0148 | 5.48 | 9.63 | −5.48 | – | – | L-proline ethyl ester naproxenate [[ProOEt][NAP]]
0.921 ± 0.0373 | 5.60 | 9.75 | – | >99% | 768.06 ± 81.05 | L-proline isopropyl ester naproxenate [[ProOiPr][NAP]]
1.094 ± 0.0218 | 5.82 | 9.97 | – | >99% | – | L-proline butyl ester naproxenate [[ProOBu][NAP]]
0.987 ± 0.0189 | 5.80 | 9.95 | – | >99% | 650.62 ± 69.83 | L-proline propyl ester naproxenate [[ProOPr][NAP]]
